Test results: PubChem BioAssay (NCI)
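How tested: cells in 96-well plates exposed to compound for 48 hours at five concentrations. GI50: concentration for 50% inhibition of growth. TGI denotes the concentration required for complete inhibition of growth.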

How the values were obtained:
Experiment in all cases: inhibition of tumour cell growth, NCI panel, 48 h
[1] = tested on: TK-10 renal
[2] = tested on: UO-31 renal
[3] = tested on: DU-145 prostate
[4] = tested on: A498 renal
[5] = tested on: SF-539 CNS
[6] = tested on: SK-MEL-2 melanoma
[7] = tested on: SF-295 CNS
[8] = tested on: NCI-H23 lung
[9] = tested on: NCI-H460 lung
[10] = tested on: SNB-75 CNS
[11] = tested on: SN12C renal
[12] = tested on: NCI/ADR-RES ovarian
[13] = tested on: HCC-2998 colon
[14] = tested on: U251 CNS
[15] = tested on: RPMI-8226 leukemia
[16] = tested on: HOP-92 NSCLC
[17] = tested on: NCI-H322M lung
[18] = tested on: OVCAR-4 ovarian
[19] = tested on: K-562 leukemia
[20] = tested on: RXF 393 renal
[21] = tested on: OVCAR-5 ovarian
[22] = tested on: IGROV1 ovarian
[23] = tested on: 786-0 renal
[24] = tested on: M14 melanoma
[25] = tested on: HOP-62 NSCLC
[26] = tested on: SK-OV-3 ovarian
[27] = tested on: MDA-MB-435
[28] = tested on: BT-549 breast
[29] = tested on: EKVX NSCLC
[30] = tested on: SNB-19 CNS

BrC1CSc2cccc3ccc[n+](c23)C1 (centres undefined)
GI50 [1]: 26.1 µM
TGI [1]: 83.8 µM
GI50 [2]: 11.9 µM
TGI [2]: 30.1 µM
GI50 [3]: 7.17 µM
TGI [3]: 56.2 µM
GI50 [4]: 2.79 µM
TGI [4]: 7.94 µM
GI50 [5]: 24.5 µM
TGI [5]: 65.1 µM
GI50 [6]: 18.5 µM
TGI [6]: 42.7 µM
GI50 [7]: 9.39 µM
TGI [7]: > 100 µM
GI50 [8]: 7.86 µM
TGI [8]: 25.1 µM
GI50 [9]: 4.98 µM
TGI [9]: 50 µM
GI50 [10]: 37.8 µM
TGI [10]: > 100 µM
GI50 [11]: 12.9 µM
TGI [11]: 36.8 µM
GI50 [12]: 35.9 µM
TGI [12]: > 100 µM
GI50 [13]: 12.6 µM
TGI [13]: 33.2 µM
GI50 [14]: 12.1 µM
TGI [14]: 67.5 µM
GI50 [15]: 3.24 µM
TGI [15]: 19.3 µM
GI50 [16]: 3.75 µM
TGI [16]: 16.4 µM
GI50 [17]: 15 µM
TGI [17]: 44 µM
GI50 [18]: 15.6 µM
TGI [18]: 43.7 µM
GI50 [19]: 12.8 µM
TGI [19]: 64.1 µM
GI50 [20]: 12.6 µM
TGI [20]: 69.3 µM
GI50 [21]: 3.55 µM
TGI [21]: 11.7 µM
GI50 [22]: 11.6 µM
TGI [22]: 32.1 µM
GI50 [23]: 17.9 µM
TGI [23]: > 100 µM
GI50 [24]: 37.3 µM
TGI [24]: > 100 µM
GI50 [25]: 13.1 µM
TGI [25]: > 100 µM
GI50 [26]: 21.5 µM
TGI [26]: > 100 µM
GI50 [27]: 17.8 µM
TGI [27]: 42.4 µM
GI50 [28]: 5.58 µM
TGI [28]: 22.9 µM
GI50 [29]: 15.3 µM
TGI [29]: 49.8 µM
GI50 [30]: 18.8 µM
